Test results as given in ChEMBL document CHEMBL1124864, “Synthesis and biological evaluation of new antimuscarinic compounds with amidine basic centers. A useful bioisosteric replacement of classical cationic heads” (J Med Chem, 1990).

Sequences of proteins named here, by UniProt entry; tags and fusion partners are left off. A change or cut given only in a name is not applied to a line headed by its entry.
UniProt P10980, whole entry: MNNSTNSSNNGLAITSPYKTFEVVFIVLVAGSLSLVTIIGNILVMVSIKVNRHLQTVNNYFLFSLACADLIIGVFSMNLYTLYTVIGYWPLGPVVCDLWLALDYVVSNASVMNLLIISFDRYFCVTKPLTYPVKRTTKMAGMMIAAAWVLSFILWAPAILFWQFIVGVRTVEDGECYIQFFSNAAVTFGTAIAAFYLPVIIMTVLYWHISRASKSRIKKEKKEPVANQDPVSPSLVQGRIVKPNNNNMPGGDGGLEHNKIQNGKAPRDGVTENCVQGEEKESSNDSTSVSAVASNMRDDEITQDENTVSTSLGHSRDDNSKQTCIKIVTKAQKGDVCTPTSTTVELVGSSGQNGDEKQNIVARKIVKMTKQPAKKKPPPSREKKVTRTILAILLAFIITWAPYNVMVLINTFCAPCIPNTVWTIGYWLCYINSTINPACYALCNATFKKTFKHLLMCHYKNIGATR
UniProt P08482: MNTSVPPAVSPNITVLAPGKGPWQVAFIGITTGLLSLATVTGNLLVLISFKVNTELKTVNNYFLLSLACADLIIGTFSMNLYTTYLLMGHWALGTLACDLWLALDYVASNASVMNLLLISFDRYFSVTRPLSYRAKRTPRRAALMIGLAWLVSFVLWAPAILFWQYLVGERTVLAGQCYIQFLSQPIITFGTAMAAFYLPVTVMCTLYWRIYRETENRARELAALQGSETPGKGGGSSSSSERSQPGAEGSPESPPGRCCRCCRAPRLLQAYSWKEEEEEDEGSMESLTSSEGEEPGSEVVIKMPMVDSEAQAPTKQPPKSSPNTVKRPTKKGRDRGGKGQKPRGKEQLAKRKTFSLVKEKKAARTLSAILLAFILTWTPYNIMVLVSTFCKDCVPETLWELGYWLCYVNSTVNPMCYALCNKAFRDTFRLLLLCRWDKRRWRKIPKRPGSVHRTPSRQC

Tests used:
[1] = target: Muscarinic acetylcholine receptor M2 (Rattus norvegicus, UniProt P10980); assay: In vitro receptor binding against Muscarinic acetylcholine receptor M2 in rat heart was determined using [3H]NMS
[2] = target: Muscarinic acetylcholine receptor M1 (Rattus norvegicus, UniProt P08482); assay: In vitro receptor binding against Muscarinic acetylcholine receptor M1 in rat cerebral cortex was determined using [3H]pirenzepine; format: tissue-based
Outline: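 Rat cortex, heart or submandibular gland homogenates in Na+-Mg2+-HEPES pH 7.4, incubated 45 min at 30 °C with radioligand plus varying cold ligand. Separated by centrifugation, pellets washed and counted, in triplicate. KD from IC50 by nonlinear regression with Cheng–Prusoff correction; Hill slopes by linear regression.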

| Compound | Kd [1] [nM] | Kd [2] [nM] |
| --- | --- | --- |
| CN1[C@@H]2C[C@@H](OC(=O)[C@H](CO)c3ccccc3)C[C@H]1[C@@H]1O[C@@H]12 [SCOPOLAMINE] | 3 |  |
| C[N+]1(C)[C@@H]2CC[C@H]1C[C@@H](OC(=O)C(CO)c1ccccc1)C2 (some centres not stated) [ATROPINE METHYLBROMIDE] |  | 2.5 |
